The values below come from paper PMC9409351, “Differential Ganglioside and Cholesterol Depletion by Various Cyclodextrin Derivatives and Their Effect on Synaptosomal Glutamate Release” (International Journal of Molecular Sciences, 2022).

Data set [1] has as its system rat cerebral synaptosomes. In words: Membrane integrity by LDH release assay. The format is cell-based. The settings on record: 100 mM. As to the method:
Adult male Wistar rats purchased from Toxi-Coop Ltd. (Budapest, Hungary) were used in the experiments. Cerebral synaptosomes were prepared according to Modi and co-workers with the following modifications. Animals were decapitated and the brain was removed rapidly. Isotonic sucrose buffer (0.32 M sucrose, 4 mM HEPES-NaOH, pH 7.4) was used to homogenize the cerebrum with a Potter S Homogenizer (B. Braun, Melsungen, Germany) with 15 strokes at 1000 rpm. The homogenate was centrifuged (1500× g, 10 min, 4 °C) and the pellet was resuspended in sucrose buffer and centrifuged with the same parameters again. The two supernatants were combined and centrifuged (20,000× g, 10 min, 4 °C) to pellet the crude synaptosomes. […] Synaptosomes were stored frozen using cryopreservation buffer and the slow freezing method to preserve their physiological state and integrity. Briefly, synaptosome pellets were resuspended in isotonic sucrose buffer containing 10% DMSO (v/v) and 10% FBS (v/v). […] The membrane integrity of the synaptosomes was measured by the CytoTox-ONE Homogeneous Membrane Integrity Assay (Promega, Madison, WI, USA) with minor modifications. […] The LDH activity was then assessed according to the manufacturer’s instructions and the fluorescence was measured by a Varioskan LUX multimode microplate reader (Thermo Fisher Scientific) at 530/590 nm.
(In general: LDH leaks from cells whose membrane has failed.)

The test system of data set [2] is rat cerebral synaptosomes. In words: Resazurin reduction viability assay. The format is cell-based. The settings on record: up to 100 mM. As to the method:
Adult male Wistar rats purchased from Toxi-Coop Ltd. (Budapest, Hungary) were used in the experiments. Cerebral synaptosomes were prepared according to Modi and co-workers with the following modifications. Animals were decapitated and the brain was removed rapidly. Isotonic sucrose buffer (0.32 M sucrose, 4 mM HEPES-NaOH, pH 7.4) was used to homogenize the cerebrum with a Potter S Homogenizer (B. Braun, Melsungen, Germany) with 15 strokes at 1000 rpm. The homogenate was centrifuged (1500× g, 10 min, 4 °C) and the pellet was resuspended in sucrose buffer and centrifuged with the same parameters again. The two supernatants were combined and centrifuged (20,000× g, 10 min, 4 °C) to pellet the crude synaptosomes. […] Synaptosomes were stored frozen using cryopreservation buffer and the slow freezing method to preserve their physiological state and integrity. Briefly, synaptosome pellets were resuspended in isotonic sucrose buffer containing 10% DMSO (v/v) and 10% FBS (v/v). […] Viability of the rat cerebral synaptosomes was measured by the Resazurin Cell Viability Kit (Cell Signaling Technology Inc., Danvers, MA, USA) with minor modifications. […] Fluorescence of the supernatant was measured with a Varioskan LUX multimode microplate reader (Thermo Fisher Scientific) at 530/590 nm. Viability of the CD-treated synaptosomes was calculated as the percentage of vehicle-treated control synaptosomes.

As for “(2-hydroxypropyl)-alpha-cyclodextrin [HPACD]”, the “LDH release at highest concentration” value in data set [1] is on record as “only a mild increase in the LDH release”. The Effect on viability entry in data set [2] is recorded as “no effect on the viability”.
